Protein sequences, listed by entry. Tags and fused reporters are not part of them.
UniProt Q13547, whole entry: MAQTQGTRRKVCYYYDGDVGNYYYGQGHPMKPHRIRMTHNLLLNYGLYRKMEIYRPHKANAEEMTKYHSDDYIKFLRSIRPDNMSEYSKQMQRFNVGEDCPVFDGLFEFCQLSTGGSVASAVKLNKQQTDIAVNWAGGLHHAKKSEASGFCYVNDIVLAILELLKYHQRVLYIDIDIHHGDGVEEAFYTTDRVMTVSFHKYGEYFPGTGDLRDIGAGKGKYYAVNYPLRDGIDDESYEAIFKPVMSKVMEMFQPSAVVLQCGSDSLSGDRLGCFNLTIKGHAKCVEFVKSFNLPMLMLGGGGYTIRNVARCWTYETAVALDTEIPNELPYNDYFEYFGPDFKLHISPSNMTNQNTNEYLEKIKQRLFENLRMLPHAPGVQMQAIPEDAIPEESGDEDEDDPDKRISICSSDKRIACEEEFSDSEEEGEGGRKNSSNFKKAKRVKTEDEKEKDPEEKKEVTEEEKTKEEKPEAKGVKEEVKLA

According to PMC13181782, “Development of Biphenyl-Substituted Uracil-Based Hydroxamic Acids (UBHAs) as Potent HDAC Inhibitors with Pro-Apoptotic Activity in Leukemia and Prostate Cancer Cells” (Journal of Medicinal Chemistry, 2026):

Target: hrHDAC1 (Homo sapiens, UniProt Q13547)
Experiment: HDAC1 inhibition assay, fluorogenic peptide
Assay type: biochemical
Settings: 10-dose, 3-fold serial dilution from 100 μM; read-out: IC50 HDAC 1

IC50: 0.101 µM
Structure (SMILES): O=C(CCCCSc1nc(-c2ccc(-c3ccccc3)cc2)cc(=O)[nH]1)NO [Compound 14a]
